Data: ChEMBL document CHEMBL4706479, “Novel Aryloxyethyl Derivatives of 1-(1-Benzoylpiperidin-4-yl)methanamine as the Extracellular Regulated Kinases 1/2 (ERK1/2) Phosphorylation-Preferring Serotonin 5-HT Receptor-Biased Agonists with Robust Antidepressant-like Activity” (J Med Chem, 2019)

Sequences of proteins named here, by UniProt entry; tags and fusion partners are left off.
UniProt P08908, whole entry: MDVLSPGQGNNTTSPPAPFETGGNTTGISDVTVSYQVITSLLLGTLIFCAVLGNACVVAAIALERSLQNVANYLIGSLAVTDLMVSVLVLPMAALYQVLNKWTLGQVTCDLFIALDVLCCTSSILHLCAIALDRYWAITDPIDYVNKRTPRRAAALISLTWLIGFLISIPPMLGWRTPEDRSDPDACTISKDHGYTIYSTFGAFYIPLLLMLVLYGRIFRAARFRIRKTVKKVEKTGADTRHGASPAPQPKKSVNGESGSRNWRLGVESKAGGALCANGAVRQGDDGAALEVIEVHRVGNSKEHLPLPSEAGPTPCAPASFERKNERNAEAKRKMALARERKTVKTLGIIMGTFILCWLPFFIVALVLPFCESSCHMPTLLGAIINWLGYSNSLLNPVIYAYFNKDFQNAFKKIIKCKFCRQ

Legend:
[1] = molecular target: T1, 5-hydroxytryptamine receptor 1A (Homo sapiens, UniProt P08908); assay: Biased agonist activity at human recombinant 5-HT1A receptor stably expressed in CHO-K1 cells assessed as inhibition of forskolin-induced cAMP accumulation after 40 mins by LANCE Ultra cAMP kit-based TR-FRET assay relative to serotonin; assay type: functional, cell-based; settings: filed as agonist
[2] = molecular target: T1, 5-hydroxytryptamine receptor 1A; assay: Biased agonist activity at human recombinant 5-HT1A receptor stably expressed in CHO-K1 cells assessed as increase in calcium mobilization measured at 2 sec intervals for 180 secs by Fluo-4AM dye based fluorescence assay relative to serotonin; assay type: functional, cell-based; settings: filed as partial agonist, time 180.0 sec

Cc1cnc(CNCC2(F)CCN(C(=O)c3ccc(F)c(Cl)c3)CC2)nc1
Emax [1]: 92% | Emax [2]: 60%
